Measured values reported in PubChem BioAssay (NCI).
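Each compound was tested at five concentrations against cells in 96-well plates for 48 hours. GI50 marks 50% less growth. TGI: total growth inhibition.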

Experiments:
Test in all cases: NCI tumour cell line growth inhibition, 48 h
[1] = system: ACHN renal
[2] = system: SF-539 CNS
[3] = system: CCRF-CEM leukemia
[4] = system: SN12C renal
[5] = system: MCF7 breast
[6] = system: HCT-116 colon
[7] = system: UACC-257 melanoma
[8] = system: SNB-19 CNS
[9] = system: HOP-92 NSCLC
[10] = system: NCI-H322M lung
[11] = system: CAKI-1 renal
[12] = system: NCI-H23 lung
[13] = system: MDA-MB-231 breast
[14] = system: RXF 393 renal
[15] = system: SK-MEL-28 melanoma
[16] = system: NCI-H522 lung
[17] = system: IGROV1 ovarian
[18] = system: U251 CNS
[19] = system: NCI/ADR-RES ovarian
[20] = system: TK-10 renal
[21] = system: DU-145 prostate
[22] = system: OVCAR-4 ovarian
[23] = system: KM12 colon
[24] = system: T-47D breast
[25] = system: 786-0 renal
[26] = system: SW-620 colon
[27] = system: SK-MEL-2 melanoma
[28] = system: EKVX NSCLC
[29] = system: A498 renal
[30] = system: MDA-N
[31] = system: OVCAR-8 ovarian
[32] = system: OVCAR-5 ovarian
[33] = system: MDA-MB-435
[34] = system: SF-268 CNS
[35] = system: SF-295 CNS
[36] = system: BT-549 breast
[37] = system: A549 NSCLC
[38] = system: HT29 colon
[39] = system: HOP-62 NSCLC
[40] = system: UO-31 renal
[41] = system: MALME-3M melanoma
[42] = system: COLO 205 colon
[43] = system: HS 578T breast
[44] = system: UACC-62 melanoma
[45] = system: HCT-15 colon
[46] = system: LOX IMVI melanoma
[47] = system: M14 melanoma
[48] = system: HL-60(TB) leukemia
[49] = system: NCI-H226 lung
[50] = system: SNB-75 CNS
[51] = system: OVCAR-3 ovarian
[52] = system: SR leukemia
[53] = system: MOLT-4 leukemia
[54] = system: PC-3 prostate
[55] = system: SK-MEL-5 melanoma
[56] = system: NCI-H460 lung
[57] = system: SK-OV-3 ovarian
[58] = system: RPMI-8226 leukemia
[59] = system: K-562 leukemia

**Q.** How did the TGI [1] turn out when `COc1ccc(C[N+](C)(CCCl)CCCl)c([N+](=O)[O-])c1` was run?
**A.** > 100 µM

**Q.** And the TGI [2]?
**A.** > 100 µM

**Q.** And the TGI [3]?
**A.** > 100 µM

**Q.** What about the TGI [4] of the same compound?
**A.** > 100 µM

**Q.** What about the TGI [5] of the same compound?
**A.** > 100 µM

**Q.** And the TGI [6]?
**A.** > 100 µM

**Q.** And the TGI [7]?
**A.** > 100 µM

**Q.** And the TGI [8]?
**A.** > 100 µM

**Q.** And the TGI [9]?
**A.** > 100 µM

**Q.** What about the TGI [10] of the same compound?
**A.** > 100 µM

**Q.** And the GI50 [11]?
**A.** 63.9 µM

**Q.** And the TGI [11]?
**A.** > 100 µM

**Q.** And the TGI [12]?
**A.** > 100 µM

**Q.** What about the TGI [13] of the same compound?
**A.** > 100 µM

**Q.** And the TGI [14]?
**A.** > 100 µM

**Q.** What about the TGI [15] of the same compound?
**A.** > 100 µM

**Q.** What about the TGI [16] of the same compound?
**A.** > 100 µM

**Q.** What about the TGI [17] of the same compound?
**A.** > 100 µM

**Q.** And the TGI [18]?
**A.** > 100 µM

**Q.** And the TGI [19]?
**A.** > 100 µM

**Q.** What about the TGI [20] of the same compound?
**A.** > 100 µM

**Q.** And the TGI [21]?
**A.** > 100 µM

**Q.** And the TGI [22]?
**A.** > 100 µM

**Q.** What about the TGI [23] of the same compound?
**A.** > 100 µM

**Q.** And the GI50 [24]?
**A.** 90.7 µM

**Q.** What about the TGI [24] of the same compound?
**A.** > 100 µM

**Q.** What about the TGI [25] of the same compound?
**A.** > 100 µM

**Q.** And the TGI [26]?
**A.** > 100 µM

**Q.** What about the TGI [27] of the same compound?
**A.** > 100 µM

**Q.** And the TGI [28]?
**A.** > 100 µM

**Q.** And the TGI [29]?
**A.** > 100 µM

**Q.** What about the TGI [30] of the same compound?
**A.** > 100 µM

**Q.** And the TGI [31]?
**A.** > 100 µM

**Q.** What about the TGI [32] of the same compound?
**A.** > 100 µM

**Q.** And the TGI [33]?
**A.** > 100 µM

**Q.** What about the TGI [34] of the same compound?
**A.** > 100 µM

**Q.** And the TGI [35]?
**A.** > 100 µM

**Q.** And the TGI [36]?
**A.** > 100 µM

**Q.** What about the TGI [37] of the same compound?
**A.** > 100 µM

**Q.** And the TGI [38]?
**A.** > 100 µM

**Q.** What about the TGI [39] of the same compound?
**A.** > 100 µM

**Q.** What about the TGI [40] of the same compound?
**A.** > 100 µM

**Q.** What about the TGI [41] of the same compound?
**A.** > 100 µM

**Q.** And the TGI [42]?
**A.** > 100 µM

**Q.** What about the TGI [43] of the same compound?
**A.** > 100 µM

**Q.** What about the TGI [44] of the same compound?
**A.** > 100 µM

**Q.** And the TGI [45]?
**A.** > 100 µM

**Q.** And the TGI [46]?
**A.** > 100 µM

**Q.** What about the TGI [47] of the same compound?
**A.** > 100 µM

**Q.** What about the TGI [48] of the same compound?
**A.** > 100 µM

**Q.** And the TGI [49]?
**A.** > 100 µM

**Q.** And the TGI [50]?
**A.** > 100 µM

**Q.** What about the TGI [51] of the same compound?
**A.** > 100 µM

**Q.** What about the TGI [52] of the same compound?
**A.** > 100 µM

**Q.** What about the GI50 [53] of the same compound?
**A.** 40.4 µM

**Q.** What about the TGI [53] of the same compound?
**A.** > 100 µM

**Q.** And the TGI [54]?
**A.** > 100 µM

**Q.** What about the GI50 [55] of the same compound?
**A.** 27.8 µM

**Q.** And the TGI [55]?
**A.** > 100 µM

**Q.** And the TGI [56]?
**A.** > 100 µM

**Q.** What about the TGI [57] of the same compound?
**A.** > 100 µM

**Q.** And the TGI [58]?
**A.** > 100 µM

**Q.** And the TGI [59]?
**A.** > 100 µM
